## scFv variants of Ab-95 (light chain) against a SARS-CoV-2 spike peptide

Reference: Engelhart et al. 2022, doi:10.1038/s41597-022-01779-4. File: FLAb, binding data.

Target: peptide PDVDLGDISGINAS, taken from heptad repeat 2 (HR2) of SARS-CoV-2 spike.

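Phage display of a naive human antibody library on the peptide gave the parent. AAYL52 was designed without a model: most single CDR substitutions and a random sample of double and triple ones. Affinity was read by AlphaSeq, a pooled yeast mating assay with surface-displayed partners. The frequency of each diploid, read from paired DNA barcodes, reflects how well the two displayed proteins bind. Scores were corrected for input abundance and mapped to Kd with protein pairs of known affinity run in the same pool. Each pool was mated in three replicate cultures.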

The variants keep the heavy chain, the linker and the frameworks of Ab-95 (scFv order VH, the linker GGGGSGGGGSGGGGS, VL).
VH: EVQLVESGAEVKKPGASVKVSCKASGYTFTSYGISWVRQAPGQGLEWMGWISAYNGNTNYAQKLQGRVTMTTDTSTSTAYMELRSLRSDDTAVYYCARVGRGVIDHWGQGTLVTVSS
VL: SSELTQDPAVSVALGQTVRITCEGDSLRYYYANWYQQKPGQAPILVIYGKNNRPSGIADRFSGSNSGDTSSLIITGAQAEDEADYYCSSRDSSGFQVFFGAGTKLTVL

Each variant is given by its three light chain CDRs, as the data file delimits them; those of the parent are EGDSLRYYYAN, GKNNRPS, SSRDSSGFQVF. Numbers give log10(Kd / nM), so 0 is 1 nM and 3 is 1 µM. Smaller is tighter. A pair that was not seen in that replicate is written "ND"; this usually means weak binding, but a binder can also be missed. Empty control strains, which show no peptide, gave a signal in 28% of pairings with library AAYL52; the median was 3.91 and 95% of these signals were weaker than 2.90. No background was subtracted. Also given: how often the same scFv was detected with the empty control strains, with their mean in brackets.

| CDR-L1 | CDR-L2 | CDR-L3 | log10 Kd, replicates | control signals |
|---|---|---|---|---|
| EGDSLRYYYDN | GTNNRPS | SSRDSAGFQVF | ND / ND / 4.54 | 4 of 9 (4.06) |
| EGDSLRYYYAN | GFNNRPH | SSADSSGFQVF | 5.07 / ND / ND | 3 of 9 (4.56) |
| EGDSFRYLYAN | GKNYRPS | SSRDSSGFQVF | ND / ND / ND | 2 of 9 (3.92) |
| EGDSVRHYYAN | GWNNRPS | SSRDSSGFQVF | ND / ND / 3.88 | 4 of 9 (3.56) |
| EGDSLRYYYAN | GKGNDPS | SSRDSSGFQVF | 3.61 / 3.10 / 3.04 | 5 of 9 (4.19) |
| ECDSLRYYYAN | GVNNRPS | SSRDSSNFQVF | ND / 4.38 / ND | 4 of 9 (3.41) |
| EGDSLKYYYAN | GKNNRPS | SPRDSSGFQVF | 3.59 / ND / ND | 2 of 9 (3.10) |
| EGDSYRYYYAN | GKNNRPS | SSRDKSGFQVM | ND / ND / ND | 1 of 9 (3.51) |
| EGDSLRQYYAN | GCNNRPS | SSRDSNGFQVF | 3.50 / 3.36 / 3.71 | 2 of 9 (3.60) |
| EGDSLRYYYAN | GKNNRPS | SSRDSSLFPGF | ND / 3.87 / ND | 1 of 9 (2.78) |
| EGNMLMYYYAN | GKNNRPS | SSRDSSGFQVF | 1.97 / 3.47 / 2.40 | 3 of 9 (4.30) |
| EGWSLRYYYAN | GKNLRPK | SSRDSSGFQVF | 3.79 / 4.53 / ND | 0 of 9 |
| EGDSQRYYYAN | RKNNRYS | SSRDSSGFQVF | ND / ND / ND | 2 of 9 (3.84) |
| EGHSLRYYAAN | GKPNRPS | SSRDSSGFQVF | 3.20 / 2.87 / 3.13 | 1 of 9 (3.75) |
| EGDSLRYYHQN | TKNNRPS | SSRDSSGFQVF | ND / 5.42 / 3.76 | 5 of 9 (4.14) |
| EKDSLRYYYAN | GHNNRPS | SCRDSSGFQVF | ND / 3.80 / ND | 0 of 9 |
| EGDSLRYYYVN | GKNNRIS | SSRDSSGFLVF | ND / ND / ND | 1 of 9 (3.15) |
| EGPSLRYYYAN | GKNERPS | SSRDSSGFAVF | 2.59 / 2.10 / 2.40 | 1 of 9 (2.94) |
| EGDSLVYDYAN | GKNNRPS | SSRDSSGMQVF | 1.44 / 1.51 / 0.98 | 4 of 9 (3.43) |
| EGDSKRYYYAN | GKNNRPS | QSRDSSGRQVF | ND / ND / ND | 3 of 9 (4.37) |
| EGDSLRYYYQN | GKNNRPS | SSRDSSCFNVF | ND / 4.47 / 3.06 | 4 of 9 (4.49) |
| EGFSWRYYYAN | GKNNRPS | SSRDSSGFQVT | ND / ND / ND | 1 of 9 (4.36) |
| EGASLRYYYGN | GKNNRPS | SSRDSSGFQVC | 2.67 / 2.35 / 2.70 | 3 of 9 (3.86) |
| EGISLRYYYAN | GDNNRPS | SSRDSSGFQVE | 2.04 / 1.59 / 1.40 | 1 of 9 (1.85) |
| ETDSLRYYYAN | GKNNRPS | SSRISSGFQYF | ND / ND / ND | 0 of 9 |
| EGDSLRYYYAN | GKENRPS | SSPDSSGFQVV | ND / 3.30 / ND | 3 of 9 (3.75) |
| EGDSLRYYYAN | GKNWRVS | SSFDSSGFQVF | 3.91 / ND / ND | 5 of 9 (4.61) |
| EGDSLRYEYAN | GKNNRPS | SSRKSSGSQVF | 3.53 / 5.68 / ND | 3 of 9 (3.27) |
| EGDSLRYYYAN | GKMNRPS | SSRDSSGFGVF | 2.93 / 3.10 / 3.85 | 1 of 9 (4.31) |
| EGDSLRYYYAN | GKNNRPG | SSRDSSGFCVY | 2.73 / 2.69 / 2.49 | 7 of 9 (4.00) |
| ENDSLRYYYAN | GKSNRPS | SSRDSSGFWVF | ND / ND / 3.13 | 1 of 9 (3.24) |
| EGDSLRYYYAN | GKNNRPE | SSRDSPGFKVF | 2.67 / 2.25 / 2.32 | 4 of 9 (4.36) |
| EGDSLRYYYAN | GKNNRPS | SSRDPNGPQVF | 2.38 / 2.53 / 2.13 | 4 of 9 (3.98) |
| EGDSLRYYKAN | GKANRPF | SSRDSSGFQVF | 3.08 / 3.09 / 2.82 | 2 of 9 (4.50) |
| EGDALRYYYAN | GKNNRPN | SSPDSSGFQVF | 2.63 / 2.44 / 2.36 | 1 of 9 (4.34) |
| EGDSLRYYQAN | GKNNRPS | SSRDSSGFQVF | 1.72 / 1.85 / 1.52 | 6 of 9 (3.91) |
| EGDSLRYYYAN | GKNNDPS | SYRFSSGFQVF | 3.80 / ND / 4.06 | 1 of 9 (4.37) |
| EHYSLRYYYAN | GKNNRPS | SSRDSSGFQVF | 3.65 / 3.67 / 3.33 | 3 of 9 (4.09) |
| EGDELRYYYAN | GKNNRPS | SSRDSKGFQVI | 4.42 / 3.17 / 3.93 | 4 of 9 (4.09) |
| EGDSLRSYYAN | GKNNWPS | SSRDYSGFQVF | 3.61 / ND / ND | 2 of 9 (3.33) |
| EGDSLRKYYAN | GQNNRPS | SSRDSSGFQNF | 2.06 / 1.79 / 1.61 | 4 of 9 (3.82) |
| ESDSLRYYYAN | GKNCRPS | SSRDSSEFQVF | ND / 3.18 / ND | 1 of 9 (2.76) |
| EGDWLRYYYAN | GKNNRPS | SSRKSSGFSVF | 5.62 / 4.08 / 3.23 | 2 of 9 (4.43) |
| EGDSLRYYYAN | GKNNRSS | SCRDSSGFQRF | 3.71 / ND / 4.54 | 3 of 9 (4.30) |

The last 5 entries again:

| CDR-L1 | CDR-L2 | CDR-L3 | log10 Kd, replicates | control signals |
|---|---|---|---|---|
| EGDSLRSYYAN | GKNNWPS | SSRDYSGFQVF | 3.61 / ND / ND | 2 of 9 (3.33) |
| EGDSLRKYYAN | GQNNRPS | SSRDSSGFQNF | 2.06 / 1.79 / 1.61 | 4 of 9 (3.82) |
| ESDSLRYYYAN | GKNCRPS | SSRDSSEFQVF | ND / 3.18 / ND | 1 of 9 (2.76) |
| EGDWLRYYYAN | GKNNRPS | SSRKSSGFSVF | 5.62 / 4.08 / 3.23 | 2 of 9 (4.43) |
| EGDSLRYYYAN | GKNNRSS | SCRDSSGFQRF | 3.71 / ND / 4.54 | 3 of 9 (4.30) |